These results are taken from BindingDB's records for doi:10.1073/pnas.75.12.6290 (1978).

Sequences of proteins named here, by UniProt entry; tags and fusion partners are left off.
UniProt P31390, whole entry: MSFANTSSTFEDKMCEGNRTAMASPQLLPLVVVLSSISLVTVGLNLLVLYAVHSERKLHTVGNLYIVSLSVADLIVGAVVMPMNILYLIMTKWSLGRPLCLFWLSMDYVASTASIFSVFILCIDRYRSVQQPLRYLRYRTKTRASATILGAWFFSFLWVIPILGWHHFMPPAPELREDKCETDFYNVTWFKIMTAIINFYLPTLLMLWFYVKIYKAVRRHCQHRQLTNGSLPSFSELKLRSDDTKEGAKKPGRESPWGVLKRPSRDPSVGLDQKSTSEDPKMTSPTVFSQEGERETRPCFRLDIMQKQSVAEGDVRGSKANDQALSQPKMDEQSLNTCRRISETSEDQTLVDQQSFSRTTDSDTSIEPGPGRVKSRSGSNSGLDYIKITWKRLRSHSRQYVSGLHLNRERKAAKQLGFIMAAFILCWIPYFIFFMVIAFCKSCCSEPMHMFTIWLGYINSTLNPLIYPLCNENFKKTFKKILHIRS

Where a name gives a salt, the structure may show the parent alone.

In this experiment the target is Histamine H1 receptor (Rattus norvegicus, UniProt P31390).
As to `COc1ccc(CN(CCN(C)C)c2ccccn2)cc1`, the Ki was found to be 4.5 nM. The result for `CN(C)CCCN1c2ccccc2Sc2ccccc21` reads 30 nM; that for `OCCN1CCN(CCCN2c3ccccc3Sc3ccc(C(F)(F)F)cc32)CC1` [2-[4-[3-[2-(trifluoromethyl)phenothiazin-10-yl]propyl]piperazin-1-yl]ethanol;hydrochloride], 67 nM; that for `CSc1ccc2c(c1)N(CC[C@@H]1CCCCN1C)c1ccccc1S2` [10-[2-(1-Methyl-piperidin-2-yl)-ethyl]-2-methylsulfanyl-10H-phenothiazine (thioridazine)], 20 nM. In the case of `CC(CN1c2ccccc2Sc2ccccc21)N(C)C` (stereo not drawn) [N,N,alpha-trimethyl-10H-phenothiazine-10-ethanamine], affinity was put at a Ki of 2.9 nM. The value for `CN(C)CCN(Cc1cccs1)c1ccccn1` [NSC_4098] was 4.5 nM; that for `CN(C)CCCN1c2ccccc2Sc2ccc(Cl)cc21` [[3-(2-Chloro-phenothiazin-10-yl)-propyl]-dimethyl-amine(Chlorpromazine)] was 36 nM. The result for `CN(C)CCC(c1ccc(Cl)cc1)c1ccccn1` (stereo not drawn) [clorfeniramina] reads 8 nM.

Usually Ki stands for the equilibrium dissociation constant of an inhibitor or competing ligand from its target. The low end stands for tighter binding, the high end for weaker binding.
